According to patent US4602025A, “Aromatase inhibitors” (Eli Lilly and Company, priority 1984, dated 1986):

Molecular target: T1, aromatase (Rattus norvegicus, UniProt P22443)
T1 sequence (P22443 1-508): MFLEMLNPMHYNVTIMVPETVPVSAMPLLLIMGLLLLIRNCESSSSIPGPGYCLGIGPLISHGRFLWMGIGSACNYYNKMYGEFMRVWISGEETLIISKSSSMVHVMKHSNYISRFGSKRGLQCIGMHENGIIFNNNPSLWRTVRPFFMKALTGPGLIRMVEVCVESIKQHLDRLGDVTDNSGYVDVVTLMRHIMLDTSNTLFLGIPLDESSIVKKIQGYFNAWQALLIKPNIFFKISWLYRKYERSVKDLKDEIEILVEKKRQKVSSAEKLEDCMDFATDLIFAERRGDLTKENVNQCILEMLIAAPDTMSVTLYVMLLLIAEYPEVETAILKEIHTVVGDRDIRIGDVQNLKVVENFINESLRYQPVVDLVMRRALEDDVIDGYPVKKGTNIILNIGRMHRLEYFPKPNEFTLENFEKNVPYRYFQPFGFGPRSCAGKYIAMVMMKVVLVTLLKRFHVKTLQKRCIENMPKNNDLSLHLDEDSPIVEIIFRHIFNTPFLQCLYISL
Test: biochemical

SMILES: c1ccc(C(c2ccccc2)(c2ccns2)n2ccnc2)cc1 [Example 1, 5-(1H-Imidazol-1-yldiphenylmethyl)isothiazole]
- pEC50: > 7.30

pEC50: −log10 of the molar value.
